Measured values from PMC2951497 (Journal of medicinal chemistry, 2010).

Amino acid sequences for entries named in this document (tags omitted). A change or cut given only in a name is not applied to a line headed by its entry.
UniProt Q13639: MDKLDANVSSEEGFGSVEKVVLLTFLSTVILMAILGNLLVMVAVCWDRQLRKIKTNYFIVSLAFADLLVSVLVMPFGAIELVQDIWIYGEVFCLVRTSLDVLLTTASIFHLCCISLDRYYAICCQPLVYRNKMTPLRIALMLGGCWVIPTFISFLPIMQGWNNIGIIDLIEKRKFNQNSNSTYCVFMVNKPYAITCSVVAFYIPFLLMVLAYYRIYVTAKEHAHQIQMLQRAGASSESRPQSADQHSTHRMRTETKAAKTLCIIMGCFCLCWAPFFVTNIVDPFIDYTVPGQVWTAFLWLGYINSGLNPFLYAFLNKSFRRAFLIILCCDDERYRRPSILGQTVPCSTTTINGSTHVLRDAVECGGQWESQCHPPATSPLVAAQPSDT

Target: human recombinant 5-HT4 receptors (h5-HT4) (Homo sapiens, UniProt Q13639)
Test: NIMH-PDSP binding to human recombinant 5-HT4 receptors, [3H]GR 113808
Settings: h5-HT4 receptors expressed in HEK293T cells; averages of triplicate measurements

CCCCN1CCC(COC(=O)c2ccc(N)cc2OC)CC1 [Compound 12, (1-Butylpiperidin-4-yl)methyl 4-amino-2-methoxybenzoate]
h5-HT4 Ki: much reduced affinity
